This passage reports Selectivity Index results from ChEMBL document CHEMBL5321201, “Investigation of morpholine isosters for the development of a potent, selective and metabolically stable mTOR kinase inhibitor” (Eur J Med Chem, 2023).

The test is described as follows: Selectivity index, ratio of Kd for DNA-tagged PI3Kalpha (unknown origin) to Kd for mTOR (unknown origin).

For `Nc1cc(C(F)F)c(-c2nc(C3CCOCC3)nc(N3C4CCC3COC4)n2)cn1`, the Selectivity Index was greater than 80.
